scFv variants of Ab-95 (light chain) against a SARS-CoV-2 spike peptide

Data: MIT Lincoln Laboratory AlphaSeq set, Engelhart et al. 2022, doi:10.1038/s41597-022-01779-4, as distributed in FLAb.

Binding partner: SARS-CoV-2 spike HR2 peptide, sequence PDVDLGDISGINAS.

Each scFv is VH, three GGGGS repeats, VL, as in the parent Ab-95, and differs from it in the CDRs of the light chain only.
VH: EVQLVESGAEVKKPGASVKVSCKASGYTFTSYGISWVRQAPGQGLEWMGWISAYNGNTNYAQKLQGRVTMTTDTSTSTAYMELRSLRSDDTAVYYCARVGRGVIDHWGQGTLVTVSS
VL: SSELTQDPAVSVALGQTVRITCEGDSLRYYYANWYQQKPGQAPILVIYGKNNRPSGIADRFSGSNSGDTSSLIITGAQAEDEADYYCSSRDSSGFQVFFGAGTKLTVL

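The starting antibody came from a phage panning campaign against this peptide. In library AAYL52, one, two or three CDR residues were substituted; doubles and triples were drawn at random. AlphaSeq pools MATa yeast showing the antibodies with MATalpha yeast showing the peptide. Binding brings cells together so that they mate, and sequencing counts the barcode pairs among the diploids. The ratio of observed to expected reads was calibrated, replicate by replicate, on BCL2-family standards whose Kd was known from biolayer interferometry. Each pool was mated in three replicate cultures.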

Sequences are complete VL domains. The read-out is the apparent dissociation constant on a log10 scale (nM): the lower, the stronger. The mean shown is taken over the replicates in which the pair was detected. "no signal" marks a missing value. The strain was present, yet no cells mated with the target were sequenced in any replicate, which points to weak or no binding. Parent in this assay: reference entry 2.31, copy in this library 2.25.

VL | mean log10 Kd (nM) | seen in | control signals
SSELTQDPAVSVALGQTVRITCEGGSLRYYYANWYQQKPGQAPILVIYGKNNTPSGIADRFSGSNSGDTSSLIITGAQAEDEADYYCSSRDSSGFQVNFGAGTKLTVL | 3.12 | 3/3 | 0/9
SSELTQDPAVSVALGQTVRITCEGDSLRYYYFNWYQQKPGQAPILVIYGTNNRPSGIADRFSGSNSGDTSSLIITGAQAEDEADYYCSSRDSSGFQVQFGAGTKLTVL | 3.60 | 2/3 | 2/9
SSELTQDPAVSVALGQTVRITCEGDSLRYYYANWYQQKPGQAPILVIYKKNNRFSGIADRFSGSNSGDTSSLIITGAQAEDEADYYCSLRDSSGFQVFFGAGTKLTVL | 4.20 | 1/3 | 3/9
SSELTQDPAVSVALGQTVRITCEGDSLRYYYANWYQQKPGQAPILVIYGKNCRPSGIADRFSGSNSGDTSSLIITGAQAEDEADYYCSSVDSSGFQVMFGAGTKLTVL | no signal | 0/3 | 0/9
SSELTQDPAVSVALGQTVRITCEGDSLRYYYANWYQQKPGQAPILVIYGKNNRPSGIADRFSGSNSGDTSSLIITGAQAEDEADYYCSSRHSEGFAVFFGAGTKLTVL | 2.36 | 3/3 | 4/9
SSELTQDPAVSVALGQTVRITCEGDSLRYYYANWYQQKPGQAPILVIYGKENRPSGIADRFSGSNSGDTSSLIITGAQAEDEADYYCSSIDSSGRQVFFGAGTKLTVL | 3.76 | 3/3 | 4/9
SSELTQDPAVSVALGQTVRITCEGDTLRYYYANWYQQKPGQAPILVIYGKNFRPSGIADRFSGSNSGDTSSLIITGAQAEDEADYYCSSRDSSGFQVFFGAGTKLTVL | 4.38 | 3/3 | 1/9
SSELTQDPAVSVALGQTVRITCEGQSLRYYQANWYQQKPGQAPILVIYGKNNRPSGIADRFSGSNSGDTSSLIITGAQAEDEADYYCSSRDSSGNQVFFGAGTKLTVL | 3.01 | 2/3 | 0/9
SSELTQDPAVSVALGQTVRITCEGDSLRYYYAYWYQQKPGQAPILVIYGKNNRPSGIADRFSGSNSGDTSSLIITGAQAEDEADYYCSSRDSSGFQCFFGAGTKLTVL | 4.93 | 1/3 | 3/9
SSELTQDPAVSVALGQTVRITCEGDTMRYYYANWYQQKPGQAPILVIYGKNNRPSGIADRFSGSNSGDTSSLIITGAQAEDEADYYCSSRDSSGFQVEFGAGTKLTVL | no signal | 0/3 | 1/9
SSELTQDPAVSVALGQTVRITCENDSLRYYYANWYQQKPGQAPILVIYGKNNQPSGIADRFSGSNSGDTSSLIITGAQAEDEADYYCSSRFSSGFQVFFGAGTKLTVL | 4.16 | 2/3 | 2/9
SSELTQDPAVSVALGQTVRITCEGDSLRWYYANWYQQKPGQAPILVIYGKNNRPSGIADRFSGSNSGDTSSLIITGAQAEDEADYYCSDRDSSGFQFFFGAGTKLTVL | 2.82 | 3/3 | 2/9
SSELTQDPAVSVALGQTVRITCEGDSLRYYYANWYQQKPGQAPILVIYNKNNRPSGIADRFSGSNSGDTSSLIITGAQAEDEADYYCSSRDSSPFNVFFGAGTKLTVL | 4.75 | 1/3 | 3/9
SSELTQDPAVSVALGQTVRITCEFDSLRYYYANWYQQKPGQAPILVIYTKNNRPSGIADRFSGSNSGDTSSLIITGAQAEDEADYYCSSRESSGFQVFFGAGTKLTVL | 3.38 | 3/3 | 2/9
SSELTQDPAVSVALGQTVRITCEGDSLRYYLACWYQQKPGQAPILVIYGKNNRPSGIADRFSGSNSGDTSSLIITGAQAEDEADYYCSSCDSSGFQVFFGAGTKLTVL | 4.42 | 1/3 | 4/9
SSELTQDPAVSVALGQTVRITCEGDFLRGYKANWYQQKPGQAPILVIYGKNNRPSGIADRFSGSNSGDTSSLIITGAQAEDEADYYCSSRDSSGFQVFFGAGTKLTVL | 2.75 | 3/3 | 4/9
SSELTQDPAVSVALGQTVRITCEGDSLRYYYANWYQQKPGQAPILVIYGKNNFPSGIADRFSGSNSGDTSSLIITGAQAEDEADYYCKSRDSSGFPVFFGAGTKLTVL | 3.90 | 1/3 | 2/9
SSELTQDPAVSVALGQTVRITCEGDSLRYYYANWYQQKPGQAPILVIYGKSNRVSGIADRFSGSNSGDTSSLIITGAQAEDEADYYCSQRDSSGFQVFFGAGTKLTVL | 4.13 | 3/3 | 4/9
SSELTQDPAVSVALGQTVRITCEGDSLFYYYANWYQQKPGQAPILVIYGKNTRPSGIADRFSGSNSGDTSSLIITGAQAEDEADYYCSSRDSSGFQVFFGAGTKLTVL | 3.07 | 2/3 | 2/9
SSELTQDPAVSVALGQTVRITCQGKSLRYYYANWYQQKPGQAPILVIYGKNNRPSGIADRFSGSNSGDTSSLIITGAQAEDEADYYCASRDSSGFQVFFGAGTKLTVL | 1.89 | 3/3 | 3/9
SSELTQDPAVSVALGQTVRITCFYDSLRYYYANWYQQKPGQAPILVIYGKNNRPSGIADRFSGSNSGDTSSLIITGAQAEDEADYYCSSRDSSGFQQFFGAGTKLTVL | no signal | 0/3 | 2/9
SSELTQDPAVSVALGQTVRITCEGDSLDYYYANWYQQKPGQAPILVIYGKNNRPSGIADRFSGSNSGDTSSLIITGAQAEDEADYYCSSYDSSTFQVFFGAGTKLTVL | 3.31 | 3/3 | 2/9

Extract of 2 entries:

VL | mean log10 Kd (nM) | seen in | control signals
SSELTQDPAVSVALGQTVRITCEGDSLRYYYAYWYQQKPGQAPILVIYGKNNRPSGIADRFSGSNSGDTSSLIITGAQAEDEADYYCSSRDSSGFQCFFGAGTKLTVL | 4.93 | 1/3 | 3/9
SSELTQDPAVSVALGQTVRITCEGDSLRYYYANWYQQKPGQAPILVIYGKNCRPSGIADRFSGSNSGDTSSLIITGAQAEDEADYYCSSVDSSGFQVMFGAGTKLTVL | no signal | 0/3 | 0/9

Background: pairings of library AAYL52 with three empty control strains gave a value in 28% of cases (median 3.91, 5th percentile 2.90). Values in that range, when seen in few replicates, are hard to tell from nonspecific mating. For each scFv, signals with the empty controls are counted beside the result.